# Experimental data: BindingDB's records for doi:10.1016/S0960-894X(97)00333-8 (Gilead Sciences, 1997)
# Biological target: Hemagglutinin (Influenza A virus (A/Shandong/9/1993(H3N2)), UniProt Q6DM53)
# Settings: pH 6.5; 37 °C
smiles,measurement,value
"CC(=O)N[C@H]1[C@H]([C@H](O)[C@H](O)CO)OC(C(=O)O)=C[C@@H]1N=C(N)N [(2R,3R,4S)-4-carbamimidamido-3-acetamido-2-[(1R,2R)-1,2,3-trihydroxypropyl]-3,4-dihydro-2H-pyran-6-carboxylic acid]",IC50,5 nM
